# Laboratory results published in patent US8946382B2, “Apelin peptides and methods of use” (The United States of America, as represented by the …, priority 2009, dated 2015).
# “Also recorded” adds a separate entry of the source.
# Tests used:
# APJ receptor = molecular target: T1, APJ receptor (Homo sapiens, UniProt P35414); details: cited from earlier work
# T1 sequence (P35414 1-380): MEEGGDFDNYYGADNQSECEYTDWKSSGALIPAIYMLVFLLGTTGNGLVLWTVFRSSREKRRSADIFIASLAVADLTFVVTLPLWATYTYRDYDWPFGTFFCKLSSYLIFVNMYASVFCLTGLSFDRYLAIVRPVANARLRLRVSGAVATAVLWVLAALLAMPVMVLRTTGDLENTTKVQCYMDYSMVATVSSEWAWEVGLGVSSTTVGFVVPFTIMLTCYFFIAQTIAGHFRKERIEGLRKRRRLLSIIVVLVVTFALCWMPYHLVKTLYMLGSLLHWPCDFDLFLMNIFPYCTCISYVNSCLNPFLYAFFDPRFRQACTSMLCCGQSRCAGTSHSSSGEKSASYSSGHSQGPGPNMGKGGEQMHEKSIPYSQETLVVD
# [1] = tested on: porcine aortic endothelial (PAE) cells; details: FIG. 13B, listed as apelin-13(F13A)
# Source text: (§1) Proliferation response profiles of apelin, salcut-NH2, salcut-Gly, and/or salcut-OH on a variety of endothelial and tumor cell lines or primary endothelial cells were obtained using the following method. Human blood vessel endothelial cells (HMEC-1), human primary microvascular dermal EC (dB1), human lymphatic endothelial cells (LEC), human mast cells (HMC-1), human breast cancer cells (MCF-7; T47D), human gastric cancer cells (HTB 103), human lung cancer cells (A549), monkey endothelial cells (CRL 1780), and porcine aortic endothelial cells (PAE) were seeded at 25,000 cells per well at 50 μl volume in appropriate media containing 0.5% serum in a 96 well plate. After overnight incubation the peptide was added in serum free media and cells were incubated for 3-5 days. To measure growth proliferation, the adenosine triphosphate ATPLITE™ one-step assay (PerkinElmer), which is based on firefly luciferase and has high sensitivity for quantification of viable cells, was used. Data were expressed as mean plus minus standard deviation. Statistical analyses were performed using Student's t-test, p values less than 0.05 were considered statistically significant.
# (§2) Endothelial cell proliferation assays were performed as described above with both spontaneously immortalized porcine aortic endothelial (PAE) cells and SV40 immortalized human dermal microvascular endothelial (HMEC-1).
# [2] = tested on: human blood vessel endothelial (HMEC-1) cells; experiment: Proliferation assay (ATPLITE), HMEC-1; format: cell-based; details: FIG. 13A, listed as apelin-13(F13A)
# Source text: as §1, §2
substance,measurement,setting,value
(Ala13)-apelin-13,stimulation of APJ receptor activity,APJ receptor; Lee et al. 2005,does not stimulate APJ receptor activity
same,binding to the APJ receptor,APJ receptor,binds to the APJ receptor
same,effect of APJ antagonist on apelin-13 mediated proliferation,[1],blocks apelin-13 induced proliferation; also recorded: selectively inhibits apelin-13 mediated proliferation
same,effect of APJ antagonist on Salcut-NH2 regulated proliferation,[2],but not salcut-NH2 mediated growth; also recorded: is not blocked by apelin-13(F13A)
same,effect of APJ antagonist on apelin-13 mediated proliferation,[2],blocks apelin-13 induced proliferation; also recorded: selectively inhibits apelin-13 mediated proliferation
